Reference: patent US20120029075A1, “COMPOSITIONS CONTAINING C1 TO C7 ORGANIC ACID MONOGLYCERIDES AND GLYCEROL, THEIR PREPARATION AND USE AS ANTIBACTERIALS AND ANTI-MOULD AGENTS” (priority 2009, published 2012)

Test system: E. coli
Experiment: In vitro antibacterial action, appearance of growth in Brain Heart Infusion, pH 5 (Table 5)
Details: for Incubation time and appearance of growth: pH 5, inoculation 10^5, Brain Heart Infusion, 3 replications

## Fumaric acid monoglycerides
10000 ppm
  Incubation time and appearance of growth: + (+ for 24 hr)
20000 ppm
  Incubation time and appearance of growth: + (+ for 24 hr)
40000 ppm
  Incubation time and appearance of growth: + (+ for 24 hr)
60000 ppm
  Incubation time and appearance of growth: no growth
80000 ppm
  Incubation time and appearance of growth: no growth
90000 ppm
  Incubation time and appearance of growth: no growth
100000 ppm
  Incubation time and appearance of growth: no growth
E. coli, tested 10000-100000 ppm
  Concentration exhibiting inhibitory potency (no growth) in all three replicates: ≥ 60,000 ppm
